What was measured:
[1] = molecular target: recombinant human HSP90 (Homo sapiens, UniProt P07900); experiment: HSP90 inhibition assay (Transcreener ADP kit); details: 1.5 µM compound (equivalent doses)
[2] = test system: PSN-1 cells; experiment: 3D spheroid cytotoxicity, acid phosphatase (APH) assay, PSN-1; details: read-out: IC50 ±S.D. PSN-1 (3D cytotoxicity); spheroids, 72 h, APH test
[3] = test system: BxPC-3 cells; experiment: 3D spheroid cytotoxicity, acid phosphatase (APH) assay, BxPC-3; details: read-out: IC50 ±S.D. BxPC-3 (3D cytotoxicity); spheroids, 72 h, APH test
[4] = test system: PSN-1 cells; experiment: Cellular lactate production; details: IC50 concentrations
[5] = test system: PSN-1 cells; experiment: ROS production (CM-H2DCFDA); details: 5 µM test compounds, antimycin 3 µM as positive control
[6] = test system: PSN-1 cells; experiment: Mitochondrial membrane potential (Mito-ID kit); details: IC50 concentrations
[7] = molecular target: recombinant human PDK4 (Homo sapiens, UniProt Q16654); experiment: ADP-Glo kinase assay, PDK4; details: 1.5 µM compound
[8] = molecular target: recombinant human PDK1 (Homo sapiens, UniProt Q15118); experiment: ADP-Glo kinase assay, PDK1

Sequences of proteins named here, by UniProt entry; tags and fusion partners are left off. Residues count along the entry.
UniProt Q16654, whole entry: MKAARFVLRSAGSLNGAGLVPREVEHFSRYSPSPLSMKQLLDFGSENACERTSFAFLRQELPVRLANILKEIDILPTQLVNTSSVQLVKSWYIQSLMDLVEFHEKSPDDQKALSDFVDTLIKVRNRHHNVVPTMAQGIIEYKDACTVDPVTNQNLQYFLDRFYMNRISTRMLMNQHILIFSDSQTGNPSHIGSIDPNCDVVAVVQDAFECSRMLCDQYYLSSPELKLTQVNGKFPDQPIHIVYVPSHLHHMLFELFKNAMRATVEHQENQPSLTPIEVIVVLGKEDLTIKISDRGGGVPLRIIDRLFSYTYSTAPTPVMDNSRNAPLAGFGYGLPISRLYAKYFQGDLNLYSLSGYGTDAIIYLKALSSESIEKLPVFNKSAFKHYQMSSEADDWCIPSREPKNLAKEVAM
UniProt Q15118, 29-436 limits assumed: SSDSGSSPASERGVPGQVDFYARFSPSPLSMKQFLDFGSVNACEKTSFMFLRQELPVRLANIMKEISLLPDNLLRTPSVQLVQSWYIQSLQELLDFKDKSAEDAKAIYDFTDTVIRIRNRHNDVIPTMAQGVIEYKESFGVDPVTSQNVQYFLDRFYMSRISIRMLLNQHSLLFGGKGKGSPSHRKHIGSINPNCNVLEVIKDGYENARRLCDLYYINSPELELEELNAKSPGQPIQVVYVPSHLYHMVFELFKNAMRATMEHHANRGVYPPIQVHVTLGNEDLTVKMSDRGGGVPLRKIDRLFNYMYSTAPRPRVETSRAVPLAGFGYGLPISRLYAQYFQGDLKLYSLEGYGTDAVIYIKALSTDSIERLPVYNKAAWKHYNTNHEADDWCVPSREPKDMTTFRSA

decrease of HSP90 catalytic activity [1]	effect on PDK4 activity (ATP consumption) [7]	effect on enzymatic activity of PDK1 ([8]; 1.5 µM compound, 30 min preincubation)	IC50 ([8]; read-out: IC50 ±S.D. PDK1, four-parameter logistic model, three independent experiments)	SMILES	IC50 [2]	IC50 [3]	lactate production [4]	ROS basal level production / hydrogen peroxide formation [5]	increase in cell population with depleted ΔΨ [6]	percentage of cells with hypopolarized mitochondrial membrane potential (in words) [6]
60–80%				COc1ccc2c(c1)c(-c1nc(N)nnc1-c1cn(C)c3ccc(Br)cc13)cn2C	8.7 µM	52.1 µM	more potent than DAP	even higher than that provoked by antimycin	about 50%	significantly increased
60–80%	completely blocked	totally suppressed	0.1 µM	COc1ccc2c(c1)c(-c1nc(N)nnc1-c1c[nH]c3ccc(F)cc13)cn2C	15.3 µM	12.2 µM		increase in the ROS basal level production	about 50%	significantly increased
